This passage reports IC50 results from US20250235453A1, “TRIAZOLOPYRIDAZINE COMPOUNDS USEFUL AS RAC1 INHIBITORS” (Revere Pharmaceuticals, priority 2021, published 2025).

Where only a bound is given, the exact number is not on record here.

In the assay the target is Rac1 (Homo sapiens, UniProt P63000). Description: Rac Activation AlphaScreen Assay (Rac1 AS). The conditions noted are these: dose leading to 50% disruption of complex. For orientation: Bead proximity is the source of the signal in Alpha formats.

Consider `Cc1cc(C)cc(C(=O)Nc2cccc(-c3ccc4nnc(-c5cccnc5)n4n3)c2)c1`, for which the IC50 (commonly the concentration at which inhibition is half-maximal) is less than 10 µM.
`COc1cccc(C(=O)Nc2cccc(-c3ccc4nnc(-c5cccnc5)n4n3)c2)c1`: the IC50 was less than 10 µM.
Next, `O=C(Nc1cccc(-c2ccc3nnc(-c4cccnc4)n3n2)c1)c1cccc(F)c1`: less than 10 µM; `O=C(Nc1cccc(-c2ccc3nnc(-c4cccnc4)n3n2)c1)c1cnco1`: less than 10 µM; `COc1ccccc1C(=O)Nc1cccc(-c2ccc3nnc(-c4cccnc4)n3n2)c1`: less than 10 µM.
The compound `O=C(Nc1cccc(-c2ccc3nnc(-c4ccncc4)n3n2)c1)c1cccc(F)c1` registered an IC50 of less than 10 µM.
Regarding `O=C(Nc1cccc(-c2ccc3nnc(-c4cccnc4)n3n2)c1)c1cccc(Cl)c1`, the IC50 was less than 10 µM.
As to `O=C(CCCc1ccccc1)Nc1cccc(-c2ccc3nnc(-c4cccnc4)n3n2)c1`, the half-inhibitory concentration (IC50) was less than 10 µM.
The figure for `CCOc1ccc(C(=O)Nc2cccc(-c3ccc4nnc(-c5cccnc5)n4n3)c2)cc1` is 10 to 50 µM; for `CCOc1cc(C(=O)Nc2cccc(-c3ccc4nnc(-c5cccnc5)n4n3)c2)ccn1` it is less than 10 µM.
With `Cc1ccc(S(=O)(=O)Nc2ccc(-c3ccc4nnc(-c5ccccn5)n4n3)cc2)cc1`, the IC50 is less than 10 µM.
On to `O=C(Nc1cccc(-c2ccc3nnc(-c4cccnc4)n3n2)c1)c1cncs1`, for which the IC50 is less than 10 µM.
On to `O=C(Nc1cccc(-c2ccc3nnc(-c4cccnc4)n3n2)c1)c1ccc2ccccc2n1`, for which the IC50 was in the range of 10 to 50 µM.
In the case of `O=C(Nc1cccc(-c2ccc3nnc(-c4cccnc4)n3n2)c1)c1cccc2ccccc12`, the IC50 was less than 10 µM.
Next, `Cn1cncc1C(=O)Nc1cccc(-c2ccc3nnc(-c4cccnc4)n3n2)c1`: less than 10 µM.
`Cc1ccccc1C(=O)Nc1ccc(-c2ccc3nnc(-c4ccccn4)n3n2)cc1` came in with an IC50 of less than 10 µM.
Compound `O=C(Nc1cccc(-c2ccc3nnc(-c4ccc(CO)o4)n3n2)c1)c1ccc(F)cc1` yielded an IC50 of less than 10 µM.
In turn, `COc1ccc(C(=O)Nc2cccc(-c3ccc4nnc(-c5cccnc5)n4n3)c2)cc1` gave an IC50 of less than 10 µM.
Turning to `CCCCOc1ccc(S(=O)(=O)Nc2cccc(-c3ccc4nnc(-c5cccnc5)n4n3)c2)cc1`, the IC50 was less than 10 µM.
As for `Cc1cccc(C(=O)Nc2cccc(-c3ccc4nnc(-c5cccnc5)n4n3)c2)c1`, the IC50 was less than 10 µM.
Compound `O=C(Nc1cccc(-c2ccc3nnc(-c4cccnc4)n3n2)c1)c1ccccn1` displayed an IC50 of less than 10 µM.
`COc1cc(C(=O)Nc2cccc(-c3ccc4nnc(-c5cccnc5)n4n3)c2)ccc1F` registered an IC50 of less than 10 µM.
`O=C(Nc1cccc(-c2ccc3nnc(-c4cccnc4)n3n2)c1)c1cccnc1`: the IC50 was less than 10 µM.
Next, `CCOc1ncccc1C(=O)Nc1cccc(-c2ccc3nnc(C)n3n2)c1`: less than 10 µM; `Cc1cccc(S(=O)(=O)Nc2ccc(-c3ccc4nnc(-c5ccccn5)n4n3)cc2)c1`: less than 10 µM.
Next, `COc1cccc(C(=O)Nc2ccc(-c3ccc4nnc(C)n4n3)cc2)c1OC`: greater than 100 µM; `CCOc1cc(C(=O)Nc2cccc(-c3ccc4nnc(-c5cccnc5)n4n3)c2)c(OCC)cn1`: less than 10 µM.
Turning to `O=C(Nc1cccc(-c2ccc3nnc(-c4ccccn4)n3n2)c1)c1cccc(F)c1`, the IC50 is less than 10 µM.
The compound `O=C(Nc1cccc(-c2ccc3nnc(-c4cccnc4)n3n2)c1)c1ccc(F)cc1` came in with an IC50 of less than 10 µM.
For the compound `O=C(Nc1cccc(-c2ccc3nnc(-c4cccnc4)n3n2)c1)c1ccccc1Br`, the half-maximal inhibitory concentration (IC50) was less than 10 µM.
On to `O=Cc1ccc(-c2nnc3ccc(-c4cccc(NC(=O)c5ccc(F)cc5)c4)nn23)o1`, for which the IC50 is less than 10 µM.
On to `CCOc1ncccc1C(=O)Nc1cccc(-c2ccc3nnc(-c4cccnc4)n3n2)c1`, for which the IC50 is less than 10 µM.
